# Experimental data reported in patent US12714711B2, “Salts of neuroceuticals and uses thereof” (priority 2020, dated 2026).
# Tests used:
# [1] = rat, in vivo, po, 83 mg/kg
# Experimental: All animals used in this study were adult rats (at least 2.5 months of age).
# Male Sprague-Dawley rats having a bodyweight between 250-300 g were randomly assigned to two groups. […] The chemicals were suspended in sesame oil and administrated by single oral gavage at 2 ml/kg. All rats were fasted overnight with free access to water before oral administration of the testing compositions. On the day of dosing, the blood samples were collected at 0 min (prior to dosing), and 0.25, 0.5, 1, 2, 4, 6, 8, and 24 hr post-dosing.
# Blood samples were collected from rat jugular veins and transferred into tubes coated with sodium heparin. To obtain plasma, the blood samples were centrifuged at 2,500×g for 15 min at 4° C. and the supernatants were collected and kept frozen in a freezer at −80° C., until they were analyzed.
# The plasma concentration of donepezil was determined by LC/MS. The chromatographic separation was carried out on a 5 μm EVO C8 100 Å LC column (100×4.6 mm, Kinetex®). The mobile phase was 0.1% formic acid in water and acetonitrile:methanol=8:2 set as gradient. Flow rate used was 0.3 mL/min. Column temperature was maintained at 40° C. and the injection volume was 30 μL.
# The pharmacokinetic parameters were calculated using non-compartmental analysis (NCA) with WinNonlin to assess the systemic exposure of donepezil in rats.
# [2] = GTT, acute oral, risperidone 12 mg/kg
Compound,Cmax [1] [ng/mL],Blood glucose level compared to vehicle after 120 min [2]
CN1CCN(C2=Nc3cc(Cl)ccc3Nc3ccccc32)CC1.O=C(O)c1cccnc1 [clozapine:nicotinic acid 1:1 salt],316,–
"Cc1nc2n(c(=O)c1CCN1CCC(c3noc4cc(F)ccc34)CC1)CCCC2.O=C(O)c1cccnc1 [risperidone:nicotinic acid 1:1 salt, resperidone:nicotinic acid 1:1 salt]",–,1.19
